BindingDB's records for patent US9828378 (Intellikine, 2017)

Target: Serine/threonine-protein kinase mTOR (Homo sapiens, UniProt P42345)

SMILES: CC(C)n1nc(-c2cc3c(Cl)c(O)ccc3[nH]2)c2c(N)ncnc21 [US9828378, # 22]
- pIC50: > 8.30

pIC50: −log10 of the molar value.
